Laboratory results taken from BindingDB's records for patent US10053463 (Janssen Pharmaceutica NV, 2018).

The chains behind the UniProt entries cited, without tags or fusion partners. Where a name states a change or a piece, a line headed by the entry shows the natural chain unless it says otherwise.
UniProt Q99572: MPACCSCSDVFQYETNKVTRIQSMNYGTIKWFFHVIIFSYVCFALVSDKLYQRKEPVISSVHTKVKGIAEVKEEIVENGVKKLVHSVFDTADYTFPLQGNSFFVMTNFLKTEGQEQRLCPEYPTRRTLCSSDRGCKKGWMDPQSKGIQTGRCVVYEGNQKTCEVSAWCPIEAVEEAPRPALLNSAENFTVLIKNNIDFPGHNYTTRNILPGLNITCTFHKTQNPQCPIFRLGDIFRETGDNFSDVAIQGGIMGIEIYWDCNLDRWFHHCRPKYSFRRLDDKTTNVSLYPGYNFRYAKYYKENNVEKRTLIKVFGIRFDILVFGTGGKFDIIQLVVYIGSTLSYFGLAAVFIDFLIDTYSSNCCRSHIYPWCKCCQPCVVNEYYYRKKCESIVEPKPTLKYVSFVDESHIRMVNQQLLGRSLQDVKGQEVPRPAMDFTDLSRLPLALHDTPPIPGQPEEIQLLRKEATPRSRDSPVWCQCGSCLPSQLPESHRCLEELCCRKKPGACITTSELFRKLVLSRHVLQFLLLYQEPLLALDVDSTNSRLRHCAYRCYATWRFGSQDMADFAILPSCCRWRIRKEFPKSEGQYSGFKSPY

Assays:
[1] = target: T1, P2X purinoceptor 7 (Homo sapiens, UniProt Q99572); experiment: P2X7 FLIPR Assay; conditions: pH 7.4
Method: 1321N1 cells expressing the recombinant human or rat P2X7 channel was cultured in HyQ DME/(HyClone/Dulbecco's Modified Eagle Medium) high glucose supplemented with 10% Fetal Bovine Serum (FBS) and appropriate selection marker. Cells were seeded at a density of 25000 cells/well (96-well clear bottom black walled plates) in 100 μl volume/well. On the day of the experiment, cell plates were washed with assay buffer, containing (in mM): 130 NaCl, 2 KCl, 1 CaCl2, 1 MgCl2, 10 HEPES, 5 glucose; pH 7.40 and 300 mOs. After the wash, cells were loaded with the Calcium-4 dye (Molecular Device) and incubated in the dark for 60 minutes. Test compounds were prepared at 250× the test concentration in neat DMSO. Intermediate 96-well compound plates were prepared by transferring 1.2 μL of the compound into 300 μL of assay buffer. A further 3× dilution occurred when transferring 50 μL/well of the compound plate to 100 μL/well in the cell plate. Cells were incubated with test compounds and dye for 30 minutes. […] The fluorescence change was measured 180 seconds after adding the agonist. Peak fluorescence was plotted as a function of BzATP concentration using Origin 7 software.

[2] = target: T1, P2X purinoceptor 7; experiment: P2X7 Radioligand Binding
Method: human or rat P2X7-1321N1 cells were collected and frozen @−80° C. On the day of the experiment, cell membrane preparations were made according to standard published methods. […] The compound can be prepared as described in the literature. […] The assay was terminated by filtration (GF/B filters pre-soaked with 0.3% PEI) and washed with washing buffer (Tris-HCl 50 mM). The IC50 generated in the binding assay was corrected for tracer concentration and affinity of the tracer to derive at the affinity (K) of the test compounds. […] Data are analyzed and graphed on Graphpad Prism 5.

Compound | IC50 [1] [nM] | Ki [2] [nM]
Cc1cccc(C(=O)NN)n1 [US10053463, 13] | 1 | 1.4
NNC(=O)c1cccc(C(F)(F)F)n1 [US10053463, 16] | 0.7 | 1.6
